From paper PMC11311241, “In Situ Forming, Enzyme-Responsive Peptoid-Peptide Hydrogels: An Advanced Long-Acting Injectable Drug Delivery System” (Journal of the American Chemical Society, 2024)

System: alkaline phosphatase
Conditions: strain sweep 0.1–1000%, 37 °C, 2.5 rad s-1, 5% w/v gels
Text: Our drug delivery system is partly defined by drug diffusion from the hydrogel matrix, and hydrolysis of the peptoid-peptide-drug chemical linker. Reproducing supramolecular gels’ mechanical properties is difficult, especially for peptide-based systems. Experimental parameters and formulation factors are particularly important, as highlighted recently by the Adams and Draper groups.[77],[78] Subtle experimental influences e.g. handling and temperature, can lead to issues with reproducibility. […] Loss (G″) and storage (G′) moduli, critical strain (%) and oscillatory time sweeps were performed to determine the rheological changes with time and the potential for rapid in situ hydrogel depot formation upon exposure to 3.98 U mL^–1 phosphatase enzyme. […] Hydrogel formation occurs when the storage modulus (G′) is at least 1 order of magnitude greater than the loss modulus (G″).[79]
Rapid gelation is important for in situ formation of drug delivery depots to reduce the diffusion of drug(s) from the depot and potential burst release. […]
Anton Paar MCR302 rheometer (Anton Paar, St Albans, UK). […] Gel strength was measured by determining the strain at which the gels […]

## tetrabenzylamine-tetraglycine-L-lysine-O-phospho-L-tyrosine [(NPhe)4GGGGKY(p)-OH]
  Strain at complete deformation (G′ and G″ intersect): ~92%
